This is an account of results in PubChem BioAssay AID720591 (Broad Institute, 2013).

The chains behind the UniProt entries cited, without tags or fusion partners. Where a name states a change or a piece, a line headed by the entry shows the natural chain unless it says otherwise.
UniProt Q9NXA8: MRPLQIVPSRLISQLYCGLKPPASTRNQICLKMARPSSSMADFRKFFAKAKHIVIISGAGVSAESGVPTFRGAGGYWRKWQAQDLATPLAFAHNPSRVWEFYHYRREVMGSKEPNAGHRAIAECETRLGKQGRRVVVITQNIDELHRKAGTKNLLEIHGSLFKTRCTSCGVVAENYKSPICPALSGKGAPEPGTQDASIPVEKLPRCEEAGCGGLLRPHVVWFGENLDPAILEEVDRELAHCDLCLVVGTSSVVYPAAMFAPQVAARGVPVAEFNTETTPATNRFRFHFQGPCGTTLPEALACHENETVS

The entries are a selection whose mix differs from that of the whole data set. Results with a measured potency or affinity are listed apart. Calls of active or inactive are those of the source.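 Rule for the calls: active = Decreasing signal and fitted IC50 at most twice the top valid tested dose; inconclusive = Bad fit or a level curve showing 30 to 70% inhibition; inactive = the rest.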

The target of the assay is NAD-dependent protein deacylase sirtuin-5, mitochondrial (Homo sapiens) (UniProt Q9NXA8). Briefly: sirtuin-5 deacylation blockers, concentration series – biochemical, fluorescence imaging, cherry-pick, set 5, dose response (AID 720591).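 Note: 0% = median of neutral control wells and -100% = median of positive control wells.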 The conditions noted are these: Purified SirT5, succinyl-peptide AMC, trypsin-coupled fluorescence; at 15 µM (top of the series).
For `CCCCOc1ccc(C(=O)NCC2(N3CCCCC3)CCCCC2)cc1OC`, the activity change, negative = inhibition is inactive: -19.5%.
